Ab-14 light chain CDR variants: yeast mating affinities

The measurements come from Li et al. 2023 (doi:10.1038/s41467-023-39022-2) through the FLAb antibody collection.

Target peptide (SARS-CoV-2 spike, HR2 region): PDVDLGDISGINAS

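The starting antibody came from a phage panning campaign against this peptide. Designed CDR sequences, proposed from the first random library and measured here. Several design methods are mixed in this list. AlphaSeq pools MATa yeast showing the antibodies with MATalpha yeast showing the peptide. Binding brings cells together so that they mate, and sequencing counts the barcode pairs among the diploids. Read counts were normalised to the haploid input and turned into Kd by a linear fit to BCL2-family pairs of known affinity, for each replicate. Mating was done six times.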

Parent scFv Ab-14: VH joined to VL by a 15-residue (Gly4Ser)3 linker. Changes lie in the light chain CDRs alone.
VH: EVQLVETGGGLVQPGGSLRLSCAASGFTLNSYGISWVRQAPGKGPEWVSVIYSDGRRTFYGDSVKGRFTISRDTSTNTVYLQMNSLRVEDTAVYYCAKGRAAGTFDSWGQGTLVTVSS
VL: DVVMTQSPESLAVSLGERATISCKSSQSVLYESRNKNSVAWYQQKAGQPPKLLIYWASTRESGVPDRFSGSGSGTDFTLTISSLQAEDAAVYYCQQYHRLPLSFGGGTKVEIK

Each variant is given by its three light chain CDRs, as the data file delimits them; those of the parent are KSSQSVLYESRNKNSVA, WASTRES, QQYHRLPLS.
Values are log10 of the apparent Kd in nM; lower means stronger binding.
A pair that was not seen in that replicate is written "n.d."; this usually means weak binding, but a binder can also be missed.
The range of this assay differs from that of the first round, and the authors advise against merging the two.
As a blank, each scFv also met three strains without target: over all light chain designs, 4% of these pairings were detected, typically at 2.64 and seldom below 1.59.
In the paper, a design with two or fewer of six values counts as a poor binder.

CDR-L1,CDR-L2,CDR-L3,"replicates, log10 nM"
NISIEDYPENNFANNVA,NTDCRCD,QQYFMLPLM,2.17 / n.d. / 2.17 / 3.03 / 2.20 / 2.39
KIQQSVLYESRNKNNVA,HASTRED,QQYHRLPLS,-0.30 / -0.13 / -0.33 / -0.18 / -0.18 / -0.08
KSAAGVLQESRNKNSVA,WASTRMS,QQYHRLPLS,1.37 / 1.81 / 1.96 / 1.16 / 1.46 / 1.87
QLSVFELQGMGWAQSIA,QADHRTE,QQFARLPLV,1.83 / 2.00 / 2.16 / 1.04 / 1.14 / 2.44
KLQQSQLYESRNKNSVA,DASTRLV,QAYHRLPLS,0.31 / 0.06 / -0.12 / 0.08 / -0.08 / 0.01
YLSQSVLYESRKKNSVA,YGSTREP,QQYHKLPLS,1.18 / 1.34 / 1.18 / 0.78 / 0.96 / 0.62
KSSQSVLYESINKNSVA,EASTRES,QQYHRLPLS,1.22 / 1.10 / 0.97 / 1.38 / 0.78 / 0.90
IISQVDAYESRAKNSIA,DQSTRGS,QQYDRLPLS,2.07 / 1.01 / 1.05 / 1.79 / 1.39 / 1.98
KLSQSVGYESRNKNSVA,NASTREM,QQYHRLPLS,-0.09 / -0.23 / -0.17 / -0.39 / -0.36 / -0.06
KIDENWNHGANRDNNIA,EARTVAA,QQYFRLPII,0.94 / 0.73 / 0.70 / 0.43 / 0.67 / 0.80
HVSESVFQMSKMKNSVA,ENSTRES,QQYDRLPLS,2.25 / 1.95 / 1.37 / 3.33 / 2.20 / 3.09
MIAQGLRGVGRNKNSVA,NAQTRVS,QHYHRLPLS,n.d. / n.d. / n.d. / n.d. / 1.90 / n.d.
KVYQSGLYESRNKNSVA,NASTRES,QQYHRLPLS,-0.30 / -0.29 / -0.53 / -0.45 / -0.42 / -0.19
QLDHQLQYDDANKKAVA,EMTEVTT,QQYHRLPLE,1.49 / 1.90 / 1.75 / 1.65 / 1.91 / n.d.
KISQSVLYDSRFKNSVA,WASTRES,QQYHRLPLS,1.57 / 2.23 / 1.42 / 1.93 / 1.19 / 1.43
KLQQESDNMNSMQNSVA,EQSMVQY,QHYWRLPLT,n.d. / n.d. / n.d. / n.d. / n.d. / n.d.
KSSQSVLEESVNKNSVA,NASTRES,QQYHRLPLS,0.30 / 0.72 / 0.13 / 0.25 / 0.06 / 0.66
KLSQSVLYESRNFNSVA,NASTRCS,QQYHRLPLS,0.53 / 0.45 / 0.04 / 0.40 / 0.24 / 0.37
KLSGLMRVESKNKSNIA,EMNTRGA,QQYDRLPLS,1.04 / 0.57 / 0.52 / 0.61 / 0.67 / 0.79
KSPQGVLYESRNKNHVA,GASTRES,QQYHRLPLS,0.26 / 0.04 / 0.14 / 0.12 / 0.37 / 0.21
KFSQEVLMESRNMNSVA,NASTREE,QQYHRLPLS,0.73 / -0.14 / 0.08 / -0.11 / -0.13 / -0.32
TITQMTSLFSQSINNVA,EVSTREP,QQYDRLPLS,1.01 / 1.22 / 1.12 / 1.45 / 0.99 / 0.91
SSSQSVLYESRLKNSVA,QASTRES,QQYHRLPLS,0.77 / 0.70 / 0.83 / 0.75 / 0.58 / 1.03
ALELEEMQMMKDINSIA,NTEYKTR,QQYVRLPIS,1.06 / 1.32 / 0.63 / 1.96 / 1.72 / 1.09
KLSQSWSYEWRNKMSVA,NASQRLS,QQYHRLPLS,0.89 / 0.74 / 0.76 / 0.60 / 0.91 / 0.94
KLSQSVLYESSNKNSVA,FASTRES,QQYHGLPLS,1.15 / 2.18 / n.d. / n.d. / 2.43 / n.d.
KLSASMYRESMHENNVA,DLRARVE,QQYHRLPLS,0.50 / 0.48 / 1.47 / 0.69 / 0.83 / 0.87
KSSQNVDYSSRNKNSVA,SASTRES,QQYHRLPLS,0.30 / 0.21 / 0.18 / 0.16 / 0.12 / 0.51
KLSQSQLYDSQNKNSVA,WASTRES,QQYHRLPLS,0.85 / 1.15 / 0.78 / 0.49 / 1.42 / 1.32
KVSQSVLYESRNKNNVA,DASTRES,QQYHRLPLS,-0.32 / -0.31 / -0.45 / -0.39 / -0.37 / -0.25
KSSQSVLYESRNKNSVA,WASTREL,QTYHRLPLS,n.d. / n.d. / n.d. / n.d. / n.d. / n.d.
KLEGSVEMESRWKNSVA,HASTRES,QQYHRLPLS,0.69 / 0.60 / 0.24 / 0.20 / 0.33 / 0.59
KIGQQVTYESTAKNAIA,QMTTREE,QQYHRLPLS,0.44 / 0.23 / 0.06 / 0.02 / 0.22 / 0.37
KISQMVRVGSTVNNSIA,EEQTRAK,QQYHRLPLS,1.42 / 1.41 / 0.89 / 1.54 / 1.28 / 1.47
HLGLVTELEAKVKNSVA,NNSTREE,QQYDRLPLS,1.98 / 0.90 / 1.40 / 2.57 / 2.82 / 1.22
KLRQSTLYESRNKNSVA,WDSTRES,QQYHRLPLS,n.d. / n.d. / n.d. / n.d. / 2.20 / 3.76
KMGQFVLYEDRLKNSVA,WASTRES,QQYHRLPLS,n.d. / n.d. / n.d. / n.d. / n.d. / n.d.
NISELMYYQSRNKNNIA,EMSTRER,QHYHRLPLS,0.13 / 0.06 / 0.17 / 0.09 / 0.09 / 0.19
KLYMSTGYESYNKDSIA,DNSTRGR,QQYHRLPLS,1.22 / 1.43 / 1.30 / 1.01 / 1.06 / 1.78
KSSQEVLGESRNKNSVA,WATERES,QQYHRLPLS,2.26 / 2.68 / 3.55 / 3.07 / 2.00 / 3.39
KVSGSDLLWSRTANQVA,EASTRES,QQYHRLPLS,0.43 / 0.47 / 0.42 / 0.49 / 0.34 / 0.66
KSSQVYLYESRNKNSVA,DASTRES,QQYHRLPLS,0.26 / 1.20 / 1.09 / 0.18 / 0.32 / 0.19
KLSQSWLYLARNSNSVA,NASQRED,QQYHRLPLS,1.03 / 1.69 / 1.07 / 0.39 / 0.01 / 0.65
VWQMDHLGQGQYQNNIA,NQDLRTA,QQYYMLPLV,0.98 / 0.61 / 0.94 / 0.96 / 1.30 / 0.67
TIQQMMSLFTQTINNVA,EVSTRLN,QQYDRLPLA,1.87 / 1.20 / 1.38 / 1.93 / 1.62 / 1.69
KLSQGALYESRNKNSVA,GASTRES,QQYHRLPLS,-0.05 / -0.16 / -0.26 / -0.31 / -0.17 / -0.09
KSSQSVLYESRNKNSVA,TAQTRNS,QQYHRLPLS,2.15 / 2.31 / 3.16 / 1.31 / 1.64 / 2.76
KLQNQYEYESRMMNSVA,NASTRLE,QQYHRLPLS,0.25 / 0.08 / -0.14 / -0.20 / 0.02 / 0.04
KLQWSWMMQSRNKNSVA,HASMRLS,QQYHRLPLS,n.d. / n.d. / n.d. / n.d. / n.d. / n.d.
KLSGLMASSKFAKQNVA,ENNTREK,QQYERLPLS,n.d. / n.d. / n.d. / n.d. / n.d. / n.d.
LMSQSVLHESRNKNSVA,WASTRSS,QQYHRLPLL,1.02 / 1.75 / 1.30 / 1.46 / 1.43 / 1.34

Picked from the list: the 3 lowest averages where every replicate gave a value.

CDR-L1,CDR-L2,CDR-L3,"replicates, log10 nM"
KVYQSGLYESRNKNSVA,NASTRES,QQYHRLPLS,-0.30 / -0.29 / -0.53 / -0.45 / -0.42 / -0.19
KVSQSVLYESRNKNNVA,DASTRES,QQYHRLPLS,-0.32 / -0.31 / -0.45 / -0.39 / -0.37 / -0.25
KLSQSVGYESRNKNSVA,NASTREM,QQYHRLPLS,-0.09 / -0.23 / -0.17 / -0.39 / -0.36 / -0.06